Source: US20210290732A1, “GLP-1R and GCGR Agonists, Formulations, and Methods of Use” (Spitfire Pharma LLC, priority 2020, published 2021)
Where two headings read alike, the source gives them in different places.

Assay: 6-week repeat-dose toxicity and toxicokinetics in cynomolgus monkeys (once weekly SC)
Type: in vivo, cynomolgus monkey (Macaca fascicularis)
Details: for AUC(0-t) / Cmax / Tmax / half-life: mean, monkey plasma
Procedure: The study was conducted by Covance.
Male and female cynomolgus monkeys (28 animals/sex; Macaca fascicularis) of Asian origin were received from Envigo Global Services Inc. (previously Covance Research Products) in Alice, Tex. Animals were acclimated to the test facility for at least 30 days prior to initiation.
Animals were dosed via subcutaneous injection into the dorsal region on Days 1, 8, 15, 22, 29, and 36 of the dosing phase at a volume of 2.0 mL/kg. The vehicle control article was F58 Formulation Buffer, which consisted of 0.050% (w/w) polysorbate 20, 0.348% (w/w) arginine, 4.260% (w/w) mannitol in deionized water (pH 7.7±0.1).
Assessment of toxicity was based on mortality, clinical observations, body weights, qualitative food consumption, ophthalmic observations, electrocardiographic (ECG) measurements, neurological examinations, qualitative respiration rates, and clinical and anatomic pathology. Blood samples were collected for toxicokinetic evaluations.
The dose sites were in the dorsal scapular region of each animal. Doses were rotated between the sites. The dose sites were as follows: Dose Site A: Upper left scapular region, Dose Site B: Upper right scapular region, Dose Site C: Lower left scapular region, Dose Site D: Lower right scapular region The following animals were not dosed due to body weight loss, body condition score, and veterinary recommendation on the days listed in the following table.
Body weights were recorded for animals four times during the predose phase, on Day −1 of the dosing phase (day prior to dose initiation), and weekly thereafter (based on Day −1) to Day 14 of the dosing phase. Starting on Day 14 of the dosing phase, body weights were collected twice weekly (based on Day 14) through to the end of the dosing phase. Body weights were collected on Days 1, 8, 15, 22, and 28 of the recovery phase. Data presented in FIG. 13 and FIG. 14 represent body weight change as a % of Day-1 in males and females respectively.

[1] = both sexes, cynomolgus monkey, plasma, subcutaneous, 0.03 mg/kg, Day 1, Group 2, 0.03 mg/kg, MF
[2] = both sexes, cynomolgus monkey, plasma, subcutaneous, 0.03 mg/kg, Day 36, Group 2, 0.03 mg/kg, MF
[3] = both sexes, cynomolgus monkey, plasma, subcutaneous, 0.06 mg/kg, Day 1, Group 3, 0.06 mg/kg, MF
[4] = both sexes, cynomolgus monkey, plasma, subcutaneous, 0.06 mg/kg, Day 36, Group 3, 0.06 mg/kg, MF
[5] = both, cynomolgus monkey, plasma, subcutaneous, […], Day 1, Group 4, […], MF
[6] = both, cynomolgus monkey, plasma, subcutaneous, […], Day 1, Group 5, […], MF
[7] = both, cynomolgus monkey, plasma, subcutaneous, […], Day 36, Group 4, […], MF
[8] = both, cynomolgus monkey, plasma, subcutaneous, […], Day 36, Group 5, […], MF
[9] = cynomolgus monkeys, dosing or recovery phase
[10] = cynomolgus monkeys, terminal or recovery sacrifices
[11] = female, cynomolgus monkey, plasma, subcutaneous, 0.03 mg/kg, Day 1, Group 2, 0.03 mg/kg, F
[12] = female, cynomolgus monkey, plasma, subcutaneous, 0.03 mg/kg, Day 36, Group 2, 0.03 mg/kg, F

`CC[C@H](C)[C@H](NC(=O)[C@H](Cc1ccccc1)NC(=O)[C@H](CCC(=O)O)NC(=O)[C@@H]1CCCCNC(=O)CC[C@H](NC(=O)[C@H](CC(=O)O)NC(=O)[C@H](CC(C)C)NC(=O)[C@H](Cc2ccc(O)cc2)NC(=O)[C@H](CCCCN)NC(=O)[C@H](CO)NC(=O)[C@H](Cc2ccc(O)cc2)NC(=O)[C@H](CC(=O)O)NC(=O)[C@H](CO)NC(=O)[C@@H](NC(=O)[C@H](Cc2ccccc2)NC(=O)[C@@H](NC(=O)CNC(=O)[C@H](CCC(N)=O)NC(=O)C(C)(C)NC(=O)[C@@H](N)Cc2c[nH]cn2)[C@@H](C)O)[C@@H](C)O)C(=O)N[C@@H](CCCCNC(=O)[C@H]2O[C@@H](OCCCCCCCCCCCCCCCCCC(=O)O)[C@H](O)[C@@H](O)[C@@H]2O)C(=O)N[C@@H](C)C(=O)N[C@@H](C)C(=O)N1)C(=O)N[C@@H](CCC(N)=O)C(=O)N[C@@H](Cc1c[nH]c2ccccc12)C(=O)N[C@@H](CC(C)C)C(=O)N[C@@H](CC(C)C)C(=O)N[C@@H](CCC(N)=O)C(=O)N[C@H](C(N)=O)[C@@H](C)O` [SEQ ID NO: 1] showed an NOAEL at 6 weeks (both sexes, cynomolgus monkey, in vivo, subcutaneous, monkeys, high dose) of 0.25 mg/kg, an AUC(0-t) (both sexes, cynomolgus monkey, plasma, subcutaneous, 0.03 mg/kg, AUC0-168, Day 1, Group 2, 0.03 mg/kg, MF) of 6100 ng·h/mL and an AUC(0-t) (both sexes, cynomolgus monkey, plasma, subcutaneous, 0.03 mg/kg, AUC0-168, Day 36, Group 2, 0.03 mg/kg, MF) of 6280 ng·h/mL. The Cmax [1] was 60.9 ng/mL, the Tmax [1] was 48 h and the half-life [1] was 56.5 h. For the same compound, the AUC(0-t) (both sexes, cynomolgus monkey, plasma, subcutaneous, 0.03 mg/kg, Day 1, Group 2, 0.03 mg/kg, MF, read-out: AUC0-t) was 6100 ng·h/mL, the Cmax [2] was 64.9 ng/mL and the Tmax [2] was 48 h. It also gave a half-life [2] of 54.5 h, an AUC(0-t) (both sexes, cynomolgus monkey, plasma, subcutaneous, 0.03 mg/kg, Day 36, Group 2, 0.03 mg/kg, MF, read-out: AUC0-312) of 7640 ng·h/mL and an AUC(0-t) (both sexes, cynomolgus monkey, plasma, subcutaneous, 0.03 mg/kg, Day 36, Group 2, 0.03 mg/kg, MF, read-out: AUC0-t) of 7500 ng·h/mL. It also gave an AUC(0-t) (both sexes, cynomolgus monkey, plasma, subcutaneous, 0.06 mg/kg, AUC0-168, Day 1, Group 3, 0.06 mg/kg, MF) of 10300 ng·h/mL, an AUC(0-t) (both sexes, cynomolgus monkey, plasma, subcutaneous, 0.06 mg/kg, AUC0-168, Day 36, Group 3, 0.06 mg/kg, MF) of 13400 ng·h/mL and a Cmax [3] of 99.5 ng/mL. It also gave a Tmax [3] of 48 h, a half-life [3] of 53.7 h and an AUC(0-t) (both sexes, cynomolgus monkey, plasma, subcutaneous, 0.06 mg/kg, Day 1, Group 3, 0.06 mg/kg, MF, read-out: AUC0-t) of 10300 ng·h/mL. For the same compound, the Cmax [4] was 140 ng/mL, the Tmax [4] was 36 h and the half-life [4] was 60.3 h. It also gave an AUC(0-t) (both sexes, cynomolgus monkey, plasma, subcutaneous, 0.06 mg/kg, Day 36, Group 3, 0.06 mg/kg, MF, read-out: AUC0-312) of 15400 ng·h/mL, an AUC(0-t) (both sexes, cynomolgus monkey, plasma, subcutaneous, 0.06 mg/kg, Day 36, Group 3, 0.06 mg/kg, MF, read-out: AUC0-t) of 15300 ng·h/mL and a Tmax [5] of 48 h. For the same compound, the half-life [5] was 61.6 h, the Tmax [6] was 36 h and the half-life [6] was 63 h. For the same compound, the Tmax [7] was 36 h, the half-life [7] was 62.3 h and the Tmax [8] was 48 h. The half-life [8] was 61.8 h, the AUC (both, cynomolgus monkey, plasma, subcutaneous, cynomolgus monkeys, 0.25 mg/kg/dose, read-out: area under the concentration time curve (AUC) at the NOAEL) was 62300 ng·h/mL and the “hematology, coagulation, clinical chemistry, urinalysis” value (cynomolgus monkeys) was “No ALT-801-related findings”. The “no adverse effect level (NOAEL)” value (cynomolgus monkeys) was 0.25 mg/kg/week, the mortality [9] was “No ALT-801-related mortality” and the neurological observations [9] was “No remarkable neurological observations”. The ophthalmic observations (cynomolgus monkeys, dosing phase) was “No remarkable ophthalmic observations”, the “food consumption, females” value (cynomolgus monkeys, females administered ≥0.03 mg/kg/dose) was “lower food consumption” and the “food consumption, males” value (cynomolgus monkeys, males administered ≥0.03 mg/kg/dose) was “No ALT-801-related changes in food consumption”. For the same compound, the organ weights (cynomolgus monkeys, terminal or recovery necropsies) was “No ALT-801-related changes in organ weights”, the macroscopic findings [10] was “No ALT-801-related macroscopic findings” and the microscopic findings [10] was “No ALT-801-related microscopic findings”. The vomitus (cynomolgus monkeys, observed once on Day 2 in two females) was “not considered an ALT-801-related clinical observation”, the AUC(0-t) (female, cynomolgus monkey, plasma, subcutaneous, 0.03 mg/kg, AUC0-168, Day 1, Group 2, 0.03 mg/kg, F) was 6140 ng·h/mL and the AUC(0-t) (female, cynomolgus monkey, plasma, subcutaneous, 0.03 mg/kg, AUC0-168, Day 36, Group 2, 0.03 mg/kg, F) was 5970 ng·h/mL. It also gave a Cmax [11] of 61.8 ng/mL, a Tmax [11] of 48 h and a half-life [11] of 56.1 h. The AUC(0-t) (female, cynomolgus monkey, plasma, subcutaneous, 0.03 mg/kg, Day 1, Group 2, 0.03 mg/kg, F, read-out: AUC0-t) was 6140 ng·h/mL, the Cmax [12] was 65.9 ng/mL and the Tmax [12] was 30 h.
